The target of this assay is human recombinant GPR65 (Homo sapiens, UniProt Q8IYL9). Put plainly: Human GPR65 cAMP HTRF antagonist assay. The assay is classed as cell-based. As to conditions: read-out: hGPR65 IC50 (activity class); 1321N1-hrGPR65 cells, assay pH 7.2, cAMP HTRF. From the text:
In one preferred embodiment, the compound prevents the increase in cytoplasmic cAMP levels expected following GPR65 activation at acidic pH. This prevention of cAMP accumulation in turn prevents downstream signalling through ICER, as described above. The “Human GPR65 cyclic adenosine monophosphate (cAMP) Homogeneous Time Resolved Fluorescence (HTRF) antagonist assay”, or simply “cAMP assay”, as described in the accompanying examples, can be used to measure the potency of GPR65 modulators, which is expressed as the concentration of compound required to reduce the increase in cAMP concentration upon GPR65 activation by 50% (i.e. an IC50).
Human GPR65 Cyclic Adenosine Monophosphate (cAMP) Homogeneous Time Resolved Fluorescence (HTRF) Antagonist Assay Procedure
IC50 data was obtained by the following procedure:
1321N1 human astrocytoma cells stably expressing human recombinant GPR65 (1321N1-hrGPR65 cells, EuroscreenFast) were cultured according to the vendor's instructions. […]
Accumulation of cAMP was detected by cAMP HTRF kit (Cisbio). d2-labeled cAMP and cryptate-labeled anti-cAMP antibody in Lysis and Detection Buffer (Cisbio) were added to assay plates, and the plates were incubated at room temperature for 1 h. […] Acceptor and donor emission signals were measured at 665 nm and 620 nm, respectively, and HTRF ratios were calculated as signal665 nm/signal620 nm×104. […]
For orientation: TR-FRET usually uses a lanthanide donor and a delayed reading to cut background.

Protein sequences, listed by entry. Tags and fused reporters are not part of them.
UniProt Q8IYL9, whole entry: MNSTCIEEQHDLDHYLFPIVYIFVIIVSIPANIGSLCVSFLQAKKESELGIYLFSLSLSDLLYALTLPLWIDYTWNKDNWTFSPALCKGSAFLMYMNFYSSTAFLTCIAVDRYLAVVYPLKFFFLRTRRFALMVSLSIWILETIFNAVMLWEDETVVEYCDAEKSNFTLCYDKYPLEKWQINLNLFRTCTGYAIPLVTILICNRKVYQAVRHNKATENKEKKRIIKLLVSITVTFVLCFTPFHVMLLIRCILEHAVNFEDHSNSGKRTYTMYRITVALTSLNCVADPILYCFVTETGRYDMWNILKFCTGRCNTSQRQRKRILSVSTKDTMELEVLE

As a reminder, the IC50 is the concentration that gives 50% inhibition.

Take `C[C@]12CC[C@H](c3ccncc3C1)N2C(=O)Nc1ccc(C(F)(F)F)c(Cl)c1`: the IC50 was 500 to 5000 nM.

Source of the values: patent US20230373989A1, “N-PHENYLAMINOCARBONYL PYRIDINO-, PYRIMIDINO AND BENZO-TROPANES AS MODULATORS OF GPR65” (PATHIOS THERAPEUTICS LIMITED, priority 2020, published 2023).
